# Ab-95 light chain CDR variants: yeast mating affinities

Data: MIT Lincoln Laboratory AlphaSeq set, Engelhart et al. 2022, doi:10.1038/s41597-022-01779-4, as distributed in FLAb.

Target peptide (SARS-CoV-2 spike, HR2 region): PDVDLGDISGINAS

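The starting antibody came from a phage panning campaign against this peptide. In library AAYL52, one, two or three CDR residues were substituted; doubles and triples were drawn at random. AlphaSeq pools MATa yeast showing the antibodies with MATalpha yeast showing the peptide. Pairs that bind mate more often; barcode pairs of the diploids are counted by sequencing. Each replicate has its own calibration line, from reference interactions of the BCL2 family. The assay was run in three technical replicates.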

Parent scFv Ab-95: VH joined to VL by a (GGGGS)3 linker. Changes lie in the light chain CDRs alone.
VH: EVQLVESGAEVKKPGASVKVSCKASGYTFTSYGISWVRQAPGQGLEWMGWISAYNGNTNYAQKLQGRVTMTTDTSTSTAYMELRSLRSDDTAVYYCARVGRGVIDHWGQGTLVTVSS
VL: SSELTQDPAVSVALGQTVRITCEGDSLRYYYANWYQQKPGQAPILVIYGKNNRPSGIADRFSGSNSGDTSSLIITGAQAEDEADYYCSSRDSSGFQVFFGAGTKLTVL

The parent's light chain CDRs are EGDSLRYYYAN, GKNNRPS, SSRDSSGFQVF; each variant's own CDRs replace them letter for letter.
All variants listed here change Y30 of the VL, counted from its first residue.
The read-out is the apparent dissociation constant on a log10 scale (nM): the lower, the stronger.
A mean of the replicates is given; it leaves out those without a signal.
An entry "ND" has no value in the source: the pair was not observed among the diploids in that replicate. This suggests poor binding but is not conclusive.
Order: sorted from the lowest average up, undetected variants last.
As a blank, each scFv also met three strains without target: over library AAYL52, 28% of these pairings were detected, typically at 3.91 and seldom below 2.90. Also given: how often the same scFv was detected with the empty control strains.

Variant EGDSLRARYAN | GNNNRPS | SSRDSSGFQVF showed 0.65, 0.52, -0.13 (mean 0.34; controls 0 of 9). For EGDSLRYAYAN | GMNNRPS | SSRDASGFQVF, the assay gave 1.20, 1.19, 0.60 (mean 1.00; controls 8 of 9). Variant EGLSLRGSYAN | GKNNRPS | SSRDSSGFQVF gave 1.36, 1.30, 0.47 (mean 1.04; controls 3 of 9). Variant EGDSLRYAGAN | GKNNRPS | SSRDSAGFQVF gave 1.91, 1.78, 1.41 (mean 1.70; controls 4 of 9). For EGDNLRYRYAN | GVNNRPS | SSRDSSGFQVF, the assay gave 1.82, 1.89, 1.55 (mean 1.75; controls 0 of 9). Variant RGDSLRYWYAN | GKNNRMS | SSRDSSGFQVF gave 2.16, 2.05, 1.84 (mean 2.02; controls 3 of 9).

For EGDSLRYPYAN | GKNNRPQ | SSRDRSGFQVF, the assay gave 1.88, 2.06, 2.33 (mean 2.09; controls 2 of 9). Variant EGDSLRYHYAN | GKNNRPS | SSRDSYGFAVF gave 2.18, 2.60, 2.38 (mean 2.39; controls 1 of 9). Variant EGWSLRYKYAN | GKNNRPS | SSRDSSGFQVI showed 2.47, 2.64, 2.58 (mean 2.56; controls 1 of 9). Variant WGDSLHYPYAN | GKNNRPS | SSRDSSGFQVF showed 2.88, 2.60, 3.25 (mean 2.91; controls 1 of 9). With EADSLRYKYAN | GKNNRPS | CSRDSSGFQVF the result was 2.82, 3.09, 2.92 (mean 2.94; controls 2 of 9). Variant EGDSLRYSYAN | RKNNRPS | SSRDSSGFQVF showed 3.62, 2.79, 3.11 (mean 3.17; controls 0 of 9).

Variant VGDSLRYIYAN | GKNNRPS | SSRDSSGCQVF showed 3.75, 2.90, 3.16 (mean 3.27; controls 2 of 9). Variant IGDSLRYNYAN | GKNNRPS | SWRDSSGFQVF gave 3.24, 2.88, 3.91 (mean 3.34; controls 0 of 9). For EGDSLRYMYAY | GKNNRPS | SSRDSSGFQVF, the assay gave 4.16, 3.12, 4.30 (mean 3.86; controls 2 of 9). With EGDSLRYMYAN | GNNNRPS | SSLDSSGFQVF the result was 3.75, 4.25, ND (mean 4.00; controls 2 of 9). Variant EGDSLAYPYAG | GKNNRPS | SSRDSSGFQVF showed 4.08, ND, ND (controls 1 of 9). Variant EGDSLRYIYAN | GKNNRRS | SSRDSSGFQVK gave 5.77, ND, ND (controls 4 of 9).

Variant EGDSLRYLYAN | GKNNPPS | SSRDSSGFQVK gave ND, ND, ND (controls 0 of 9). Variant EGDSLRYEYAN | GKNNRPS | SSFDSSGTQVF gave ND, ND, ND (controls 4 of 9). With ECDSLRYTYAN | GKNNRPS | SSRYSSGFQVF the result was ND, ND, ND (controls 0 of 9). For EGDSLRYIYAN | GKNNWPS | FSRDSSGFQVF, the assay gave ND, ND, ND (controls 3 of 9). For EGDSLRYQYAN | GKNNRPS | SSRDSSGFQVF, the assay gave ND, ND, ND (controls 0 of 9). For EGDSLRYDYAN | GKNNRPS | SSRDSSGPLVF, the assay gave ND, ND, ND (controls 0 of 9).

The first 4 variants above that were never detected:

| CDR-L1 | CDR-L2 | CDR-L3 | log10 Kd (nM) by replicate | mean log10 Kd (nM) | signal with controls |
|---|---|---|---|---|---|
| EGDSLRYLYAN | GKNNPPS | SSRDSSGFQVK | ND, ND, ND | ND | 0/9 |
| EGDSLRYEYAN | GKNNRPS | SSFDSSGTQVF | ND, ND, ND | ND | 4/9 |
| ECDSLRYTYAN | GKNNRPS | SSRYSSGFQVF | ND, ND, ND | ND | 0/9 |
| EGDSLRYIYAN | GKNNWPS | FSRDSSGFQVF | ND, ND, ND | ND | 3/9 |